Earlier results as cited in patent US20220380769A1 (priority 2020, published 2022).

Conditions: concentration of 2.5 mg/ml; preclinical and clinical studies; cited from earlier work

rIn.r(C12U)n [Rintatolimod]
safety profile administered intranasally: well-tolerated
